Experimental findings from patent US10222368B2 (priority 2012, dated 2019) are described below.

The chains behind the UniProt entries cited, without tags or fusion partners. Residues count along the entry.
UniProt P21333, 2-2647 limits assumed: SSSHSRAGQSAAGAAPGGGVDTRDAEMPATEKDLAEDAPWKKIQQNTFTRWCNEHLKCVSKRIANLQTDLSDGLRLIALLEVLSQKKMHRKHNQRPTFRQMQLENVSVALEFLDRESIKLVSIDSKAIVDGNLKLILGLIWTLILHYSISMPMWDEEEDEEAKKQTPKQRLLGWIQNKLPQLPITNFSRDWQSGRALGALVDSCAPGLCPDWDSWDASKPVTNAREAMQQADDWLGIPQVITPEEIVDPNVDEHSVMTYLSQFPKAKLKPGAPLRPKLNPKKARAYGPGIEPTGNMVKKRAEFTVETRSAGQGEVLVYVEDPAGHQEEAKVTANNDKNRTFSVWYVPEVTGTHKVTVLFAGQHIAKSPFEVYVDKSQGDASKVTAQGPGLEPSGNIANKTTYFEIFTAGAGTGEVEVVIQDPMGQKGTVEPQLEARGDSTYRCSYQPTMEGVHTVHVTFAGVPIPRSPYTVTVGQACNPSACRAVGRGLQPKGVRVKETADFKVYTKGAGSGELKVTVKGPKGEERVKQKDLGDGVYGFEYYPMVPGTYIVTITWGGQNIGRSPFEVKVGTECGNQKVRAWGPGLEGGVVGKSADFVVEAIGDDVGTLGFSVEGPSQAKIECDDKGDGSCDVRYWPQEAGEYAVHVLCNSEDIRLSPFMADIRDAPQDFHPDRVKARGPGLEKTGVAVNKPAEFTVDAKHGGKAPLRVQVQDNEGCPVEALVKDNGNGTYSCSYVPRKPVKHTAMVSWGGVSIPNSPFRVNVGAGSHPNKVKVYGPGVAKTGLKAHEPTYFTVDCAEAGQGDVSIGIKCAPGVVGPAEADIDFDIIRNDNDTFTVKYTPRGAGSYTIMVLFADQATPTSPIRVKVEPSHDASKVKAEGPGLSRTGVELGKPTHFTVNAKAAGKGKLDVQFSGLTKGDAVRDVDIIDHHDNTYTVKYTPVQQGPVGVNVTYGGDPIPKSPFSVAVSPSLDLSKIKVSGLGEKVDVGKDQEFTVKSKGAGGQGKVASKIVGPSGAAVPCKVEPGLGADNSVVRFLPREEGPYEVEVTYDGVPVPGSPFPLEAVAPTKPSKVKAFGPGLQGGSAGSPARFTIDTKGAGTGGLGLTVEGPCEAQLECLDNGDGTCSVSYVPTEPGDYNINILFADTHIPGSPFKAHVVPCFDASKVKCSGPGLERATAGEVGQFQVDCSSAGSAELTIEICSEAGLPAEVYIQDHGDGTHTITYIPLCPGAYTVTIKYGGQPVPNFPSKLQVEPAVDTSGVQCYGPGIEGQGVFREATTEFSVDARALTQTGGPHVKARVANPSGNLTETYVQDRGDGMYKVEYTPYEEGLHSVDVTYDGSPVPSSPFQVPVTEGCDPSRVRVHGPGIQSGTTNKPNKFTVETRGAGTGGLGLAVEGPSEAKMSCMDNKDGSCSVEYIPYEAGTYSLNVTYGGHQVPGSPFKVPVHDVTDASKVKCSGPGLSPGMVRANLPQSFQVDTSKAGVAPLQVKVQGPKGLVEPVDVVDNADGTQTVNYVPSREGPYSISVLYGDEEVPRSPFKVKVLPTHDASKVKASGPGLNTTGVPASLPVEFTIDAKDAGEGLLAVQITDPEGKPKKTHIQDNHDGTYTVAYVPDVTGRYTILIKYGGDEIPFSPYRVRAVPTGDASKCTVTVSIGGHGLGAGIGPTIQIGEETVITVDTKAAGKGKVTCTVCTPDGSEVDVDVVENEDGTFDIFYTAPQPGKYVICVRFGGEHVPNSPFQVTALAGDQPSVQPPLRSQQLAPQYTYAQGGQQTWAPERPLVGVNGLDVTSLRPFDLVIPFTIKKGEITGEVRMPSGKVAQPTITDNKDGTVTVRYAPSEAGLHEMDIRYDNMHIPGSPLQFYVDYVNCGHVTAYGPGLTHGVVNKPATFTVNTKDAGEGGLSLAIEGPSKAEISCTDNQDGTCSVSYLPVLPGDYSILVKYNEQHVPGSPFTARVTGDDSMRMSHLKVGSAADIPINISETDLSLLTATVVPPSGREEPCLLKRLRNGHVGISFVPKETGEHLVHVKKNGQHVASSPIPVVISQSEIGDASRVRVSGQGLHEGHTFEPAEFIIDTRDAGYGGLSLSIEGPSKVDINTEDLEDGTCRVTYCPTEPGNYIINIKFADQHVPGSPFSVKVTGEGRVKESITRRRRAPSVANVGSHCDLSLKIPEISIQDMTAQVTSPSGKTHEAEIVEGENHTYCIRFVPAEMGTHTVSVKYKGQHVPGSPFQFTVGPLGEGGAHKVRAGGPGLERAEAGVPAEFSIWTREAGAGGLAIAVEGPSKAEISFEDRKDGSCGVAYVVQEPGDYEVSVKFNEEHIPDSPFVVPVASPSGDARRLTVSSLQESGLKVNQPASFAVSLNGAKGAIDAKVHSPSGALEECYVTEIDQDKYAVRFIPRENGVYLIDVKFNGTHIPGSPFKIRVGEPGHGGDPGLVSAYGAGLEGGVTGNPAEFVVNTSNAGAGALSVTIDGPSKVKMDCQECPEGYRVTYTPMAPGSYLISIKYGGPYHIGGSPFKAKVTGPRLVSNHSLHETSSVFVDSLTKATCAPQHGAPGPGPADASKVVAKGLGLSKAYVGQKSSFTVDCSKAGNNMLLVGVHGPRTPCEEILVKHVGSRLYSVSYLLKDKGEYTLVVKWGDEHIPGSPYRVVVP

The target in the assay is T1, human FLNA-α7nAChR complex (Homo sapiens, UniProt P21333).
T1 construct: To determine the levels of FLNA-α7nAChR, FLNA-TLR4 and α7nAChR-Aβ42 complexes in the lymphocytes; endogenous in cells; host or cells: lymphocytes from venous blood of AD patients and control subjects (ex vivo)
Nature of the assay: Supplemental ELISA for FLNA-α7nAChR complex (Example 8: specificity, accuracy, precision, linearity, detection limit). On the procedure:
The following study was carried out to assist in development of a protocol for an ELISA assay method for quantitative detection of human FLNA-α7nAChR/TLR4 complex. The following ELISA method activities were carried out to quantify FLNA-α7nAChR complex: specificity; accuracy; precision/repeatability; linearity and range; and, detection limit.
To assure ELISA assay uniquely identifies human FLNA-α7nAChR complex, the cross reactivity to human FLNA-α7nAChR complex, unrelated human proteins human leptin and human chorionic gonadotropin (hLeptin and hCG) were added to the lymphocyte lysate preparations and the ELISA assay performed.
To assure the ELISA assay returns a value that is representative of the “true” value, a range of concentrations of recombinant human leptin was spiked into lysate sample with FLNA-α7nAChR complex. Recovery percent concentrations were measured and accuracy calculated.
To assure that three measurements of a single lysate sample (e.g., sample AD#63) made in the same assay provide the same result, three samples were measured using the ELISA assay, three times on the same day using the same methods (repeatability). Within-day RSD was calculated.
To assure that the response is linear over the range of expected sample values, OD 450 of different concentrations of human FLNA-α7nAChR complex were detected using the ELISA assay. […]

“hCG: unrelated human proteins human leptin and human chorionic gonadotropin (hLeptin and hCG); human recombinant CG”: under “5 μg protein per well instead of lymphocyte lysate”, the “Normalized OD, Average” value came out at 0.01. The “% Cross reactivity” value (5 μg protein per well, relative to 5 μg AD#63 lysate) is 3.1%.
